{
  "source": "patent US8852552B2",
  "about": "“Agents and methods for visualizing analytes” (priority 2010, dated 2014)",
  "settings": "tritiated complex with peptide FLNCCPGCCMEP, several weeks after isolation",
  "data": [
    {"substance": "2,5-di-(1,3,2-Dithiarsolan-2yl)-9(4-fluorophenyl)-6-[^3H3]methoxy-3-fluorone [6-[^3H3CO]-PSMXB-6]", "values": [
      {"measurement": "stability of isolated radiolabelled complex on reanalysis", "value": "adequate stability"}
    ]}
  ]
}
